The chains behind the UniProt entries cited, without tags or fusion partners.
UniProt P15823, whole entry: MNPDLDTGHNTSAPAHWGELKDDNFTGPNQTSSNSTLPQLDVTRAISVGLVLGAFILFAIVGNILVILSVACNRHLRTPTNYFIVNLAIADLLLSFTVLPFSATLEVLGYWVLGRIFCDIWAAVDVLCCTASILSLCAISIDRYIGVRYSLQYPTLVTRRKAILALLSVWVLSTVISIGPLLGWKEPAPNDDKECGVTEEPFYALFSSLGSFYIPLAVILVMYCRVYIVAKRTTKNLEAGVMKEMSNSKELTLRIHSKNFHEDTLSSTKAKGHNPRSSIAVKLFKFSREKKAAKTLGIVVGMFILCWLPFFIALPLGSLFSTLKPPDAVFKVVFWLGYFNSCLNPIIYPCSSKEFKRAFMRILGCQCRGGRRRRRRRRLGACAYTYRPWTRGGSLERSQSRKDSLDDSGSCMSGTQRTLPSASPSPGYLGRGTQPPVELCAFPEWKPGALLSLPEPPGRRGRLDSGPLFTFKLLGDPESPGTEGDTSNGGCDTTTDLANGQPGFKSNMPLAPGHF

According to US20020150912A1, “Reporter system for cell surface receptor-ligand binding” (priority 2000, published 2002):

Target: alpha adrenoceptor, Rα1b (Rattus norvegicus, UniProt P15823)
Assay: cell-based

CNC[C@H](O)c1ccc(O)c(O)c1 [epinephrine]
EC50: 117 nM
